From PubChem BioAssay (NCI)
Where “and” joins values, the source holds several entries; their conditions need not be identical. Equal values may be shown once. Only a part is listed here, and it is no random draw. Some structures have more than one record in an assay (separate samples or runs), and their calls can disagree. Calls of active or inactive are those of the source. Cut-off read from the data, not from the text of the source: active = growth inhibition above about 70%; inactive = the rest.

Legend:
[1] = NCI Yeast Anticancer Drug Screen. Data for the rad50 strain (AID 155);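 note: 0% = growth of vehicle-only cultures of the same strain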; conditions: S. cerevisiae rad50 strain growth inhibition, stronger effect = higher value
[2] = NCI Yeast Anticancer Drug Screen. Data for the mec2-1 strain (AID 157); conditions: S. cerevisiae mec2-1 strain, stronger effect = higher value
[3] = NCI Yeast Anticancer Drug Screen. Data for the sgs1 mgt1 strain (AID 161);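 note: 0% = growth of cultures given vehicle only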; conditions: S. cerevisiae sgs1 mgt1 strain, stronger effect = higher value
[4] = NCI Yeast Anticancer Drug Screen. Data for the cln2 rad14 strain (AID 165);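 note: 0% = growth equal to vehicle treated cultures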; conditions: S. cerevisiae cln2 rad14 strain, stronger effect = higher value
[5] = NCI Yeast Anticancer Drug Screen. Data for the bub3 strain (AID 167); conditions: S. cerevisiae bub3 mutant strain, stronger effect = higher value
[6] = NCI Yeast Anticancer Drug Screen. Data for the mlh1 rad18 strain (AID 175); conditions: S. cerevisiae mlh1 rad18 strain growth inhibition, stronger effect = higher value
[7] = at 5.0 µM (retest, dose inferred, filed as 0.5)
[8] = at 50.0 µM (retest, dose inferred, filed as 5.0)

Measured: growth inhibition

COc1ccc2c(c1)C1(C)CCC(O2)C12CO2 (centres undefined)
active: [1]; [7] 82% | [1]; [8] 91% | [1]; at 50.0 µM 89.2% | [2]; at 50.0 µM 90.2% | [3]; at 50.0 µM 89.6% | [4]; [7] 76% | [4]; [8] 91% | [4]; at 50.0 µM 88.8% | [5]; at 50.0 µM 89.9%
inactive: [2]; [7] 37% | [2]; [8] 41% | [3]; [7] 13% | [3]; [8] 45% | [5]; [7] 19% | [5]; [8] 11% | [6]; [7] 31% | [6]; [8] 46% | [6]; at 50.0 µM -38.8%

ClC(SSC(Cl)C(Cl)(Cl)Cl)C(Cl)(Cl)Cl (centres undefined)
inactive: [1]; at 50.0 µM 59.2% | [2]; at 50.0 µM 43.6% | [4]; [7] 59% | [4]; at 50.0 µM 22.6% | [6]; at 50.0 µM 69.8%
active: [1]; [7] 99% | [1]; [8] 99% | [2]; [7] 100% | [2]; [8] 99% | [3]; [7] 71% | [3]; [8] 98% | [3]; at 50.0 µM 72% | [4]; [8] 97% | [5]; [7] 90% | [5]; [8] 99% | [5]; at 50.0 µM 77.2% | [6]; [7] 100% | [6]; [8] 99%

O=[N+]([O-])C(Cl)(Cl)/C=C(\Cl)C(Cl)(Cl)[N+](=O)[O-]
inactive: [1]; [7] 35% | [2]; [7] 24% | [3]; [7] 27% | [4]; [7] 15% | [4]; at 50.0 µM 65.6% | [5]; [7] 20% | [6]; [7] 32%
active: [1]; [8] 95% | [1]; at 50.0 µM 70.2% | [2]; [8] 100% | [2]; at 50.0 µM 84.2% | [3]; [8] 95% | [3]; at 50.0 µM 90.5% | [4]; [8] 75% | [5]; [8] 99% | [5]; at 50.0 µM 72.2% | [6]; [8] 98% | [6]; at 50.0 µM 73.4%

O=C(C(=O)c1ccc([N+](=O)[O-])cc1[N+](=O)[O-])c1ccc([N+](=O)[O-])cc1[N+](=O)[O-]
inactive: [1]; [7] 13% | [2]; [7] 7% | [2]; [8] 56% | [2]; at 50.0 µM 53.4% | [3]; [7] 10% | [4]; [7] 6% | [4]; [8] 36% | [4]; at 50.0 µM 3.05% | [5]; [7] 8% | [6]; [7] 19%
active: [1]; [8] 89% | [1]; at 50.0 µM 73.9% | [3]; [8] 73% | [3]; at 50.0 µM 77.2% | [5]; [8] 73% | [5]; at 50.0 µM 75.9% | [6]; [8] 83% | [6]; at 50.0 µM 87.7%

O=C(c1cc(I)c(I)c(I)c1)N(CCCl)CCCl
active: [1]; [8] 98% | [1]; at 50.0 µM 79.8% | [2]; [8] 99% | [3]; [8] 99% | [3]; at 50.0 µM 98.2% | [4]; [8] 98% | [5]; [8] 99% | [5]; at 50.0 µM 70% | [6]; [8] 99% | [6]; at 50.0 µM 90.4%
inactive: [1]; [7] 4% | [2]; [7] 10% | [2]; at 50.0 µM 37.9% | [3]; [7] 43% | [4]; [7] 10% | [4]; at 50.0 µM 50.9% | [5]; [7] 23% | [6]; [7] 21%

ClCCN(CCCl)c1cccc(CN2CCCCC2)c1
65.6% (inactive) and 74.9% (active): [3]; at 50.0 µM
active: [5]; [8] 79% | [6]; [8] 84%
inactive: [1]; [7] 23% | [1]; [8] 63% | [1]; at 50.0 µM 32.7% and 39% | [2]; [7] 25% | [2]; [8] 19% | [2]; at 50.0 µM 46.2% and 35.5% | [3]; [7] 36% | [3]; [8] 62% | [4]; [7] 52% | [4]; [8] 62% | [4]; at 50.0 µM 50.6% and 56% | [5]; [7] 35% | [5]; at 50.0 µM 61.1% and 38.6% | [6]; [7] 63% | [6]; at 50.0 µM 66.6% and 61.5%

N#Cc1cc([N+](=O)[O-])cc([N+](=O)[O-])c1N
active: [1]; at 50.0 µM 81.7% | [1]; at 100.0 µM 78% | [6]; [8] 76%
inactive: [1]; at 1.2 µM 5% | [1]; at 3.7 µM 17% | [1]; [7] -15% | [1]; at 11.0 µM 28% | [1]; at 33.0 µM 61% | [1]; [8] 50% | [2]; at 1.2 µM 6% | [2]; at 3.7 µM 12% | [2]; [7] -9% | [2]; at 11.0 µM 15% | [2]; at 33.0 µM 26% | [2]; [8] 40% | [2]; at 50.0 µM 47.4% | [2]; at 100.0 µM 40% | [3]; [7] 2% | [3]; [8] 29% | [3]; at 50.0 µM 19.6% | [4]; [7] -65% | [4]; [8] 9% | [4]; at 50.0 µM 22% | [5]; at 1.2 µM -12% | [5]; at 3.7 µM -2% | [5]; [7] -28% | [5]; at 11.0 µM 7% | [5]; at 33.0 µM 26% | [5]; [8] 19% | [5]; at 50.0 µM 13.6% | [5]; at 100.0 µM 46% | [6]; [7] -15% | [6]; at 50.0 µM 61.4%

NC(Cc1cnc[nH]1)C(=O)O (centres undefined)
active: [1]; at 11.0 µM 97% | [1]; at 33.0 µM 98% | [1]; at 100.0 µM 99% | [2]; at 11.0 µM 75% | [2]; at 33.0 µM 97% | [2]; at 100.0 µM 99% | [5]; at 11.0 µM 95% | [5]; at 33.0 µM 98% | [5]; at 100.0 µM 99%
inactive: [1]; at 1.2 µM -55% | [1]; at 3.7 µM 51% | [1]; [7] 0% and -2% | [2]; at 1.2 µM -2% | [2]; at 3.7 µM 0% | [3]; [7] 0% [middle of 4 runs] | [4]; [7] 1% [middle of 5 runs] | [5]; at 1.2 µM 1% | [5]; at 3.7 µM 34% | [5]; [7] -3% [middle of 5 runs] | [6]; [7] 1% [middle of 5 runs]

C/C(=N\Nc1ccc([N+](=O)[O-])cc1[N+](=O)[O-])c1ccc(Cl)cc1[N+](=O)[O-]
inactive: [1]; [7] 1% | [1]; [8] -4% | [1]; at 50.0 µM -0.25% | [2]; [7] -6% | [2]; [8] -7% | [2]; at 50.0 µM 11.1% | [3]; [7] 0% | [3]; [8] -14% | [3]; at 50.0 µM -10.1% | [4]; [7] -13% | [4]; [8] -29% | [4]; at 50.0 µM 39.2% | [5]; [7] 9% | [5]; [8] 14% | [5]; at 50.0 µM 66% | [6]; [7] -1% | [6]; [8] -2% | [6]; at 50.0 µM -2.65%
